Experimental findings from paper PMC4980917 are described below.

For this test, the target named is C99, the 99 residue C-terminal fragment of the human amyloid precursor protein, recombinant, in LMPG micelles (human). The test is described as follows: NMR titration.

For the substance “recombinant wild type human transthyretin (TTR) tetramer (from UniProt P02766 21-147) (natural protein)”, the KD from the peak of A665 was 280 µM, the KD from the peak of G659 was determined as 252 µM and the KD from the peak of T668 came out at 384 µM.
